The test has as its target DYRK1A (Homo sapiens (Human), UniProt Q13627). Briefly: In vitro DYRK1A inhibition assay. The class given is biochemical. The procedure: Briefly, specific kinase/substrate pairs along with required cofactors were prepared in reaction buffer; 20 mM Hepes (pH 7.5), 10 mM MgCl2, 1 mM EGTA, 0.02% Brij35, 0.02 mg/ml BSA, 0.1 mM Na3VO4, 2 mM DTT, 1% DMSO. Compounds were delivered into the reaction, followed ˜20 min later by addition of a mixture of ATP (Sigma) and 33P ATP (PerkinElmer) to a final concentration of 10 μM. […] IC50 values and curve fits were obtained using Prism (GraphPad Software). Kinome tree representations were prepared using Kinome Mapper (http://www.reactionbiology.com/apps/kinome/mapper/Launch Kinome.htm).
The 2×DYRK1A/Ser/Thr 18 mixture was prepared in 50 mM HEPES pH 7.5, 0.01% BRIJ-35, 10 mM MgCl2, 1 mM EGTA.

Regarding `CN1CCC(Nc2cncc(-c3cnc4[nH]cc(F)c4c3)n2)CC1` [Compound 142, 6-(3-fluoro-1H-pyrrolo[2,3-b]pyridin-5-yl)-N-(1-methylpiperidin-4-yl)pyrazin-2-amine], the IC50 (commonly the midpoint of a concentration-inhibition curve) was less than 500 nM.

These data come from patent US9669028B2, “Substituted 5-(pyrazin-2-yl)-1H-pyrazolo [3, 4-B] pyridine and pyrazolo [3, 4-B] pyridine derivatives as protein kinase inhibitors” (Arrien Pharmaceuticals LLC, priority 2011, dated 2017).
